Converted amounts (≈) assume the structure as drawn.
Test system: healthy volunteers and patients undergoing a colonoscopy
Assay: CNS 7056-fentanyl interaction MOAA/S pharmacodynamic analysis
Details: for Scoping Factor: N 36
[1] = Run FEN16S, zero score -1.5, five score 5.1
[2] = Run FEN17S, zero score -1.5, five score 5.0
[3] = Run FEN20S, zero score -1.25, five score 5.05
[4] = Run FEN21S, zero score -1.3, five score 5.05
[5] = Run FEN22S, zero score -1.3, five score 5.05
[6] = Run FEN23S, zero score -1.25, five score 5.0
[7] = Run FEN24S, zero score -1.25, five score 5.0
[8] = Run FEN25S, zero score -1.25, five score 5.0
[9] = Run FEN27S, zero score -1.25, five score 5.0
[10] = Run FEN28S, zero score -1.25, five score 5.0
[11] = Run FEN29S, zero score -1.25, five score 5.0
[12] = Run FEN30S, zero score 0.01, five score 5.0
[13] = Studies CNS 7056-001 and -002 combined, number of records
[14] = model CNS7056FEN19S, three-compartment
[15] = model CNS7056FEN19S, three-compartment, RSE not given
[16] = model CNS7056FEN26S, three-compartment
[17] = model CNS7056FEN135S19, four-compartment
[18] = model CNS7056FEN135S19, four-compartment, RSE not given
[19] = model CNS7056FEN135S26, four-compartment
[20] = model CNS7056FEN159S19, three-compartment, heart-rate predicting cardiac output and central volume
[21] = model CNS7056FEN159S19, three-compartment, heart-rate predicting cardiac output and central volume, RSE not given
[22] = model CNS7056FEN159S26, three-compartment, heart-rate predicting cardiac output and central volume

COC(=O)CC[C@@H]1N=C(c2ccccn2)c2cc(Br)ccc2-n2c(C)cnc21 [CNS 7056, 3-[(4S)-8-bromo-1-methyl-6-(2-pyridinyl)-4H-imidazo[1,2-a][1,4]benzodiazepin-4-yl] propionic methyl ester]
EMIN (first line so headed), eta IIV (RSE%) (CNS7056FEN32S): 29.06 (11.6) | EMIN (second line so headed), eta IIV (RSE%) (CNS7056FEN32S): 93.78 (38.1) | Fentanyl concentration-equivalence, theta (RSE%) (CNS7056FEN32S): 32.0 (8.87) | Hill Coefficient, eta IIV (RSE%) (CNS7056FEN32S): 54.25 (11.9) | Hill Coefficient, theta (RSE%) (CNS7056FEN32S): 4.30 (2.06) | ke0, theta (RSE%) (CNS7056FEN32S): 12.4 (1.38) h^-1 | EC50, theta (RSE%) (CNS7056FEN32S, zero scores changed to -1.30): 0.375 (1.63) µg/ml | EC50 (Geom. Mean (Typical Value)): 0.380 µg/mL (≈ 0.865 µM) | EMAX (Geom. Mean (Typical Value)): 4.84 | EMIN (Geom. Mean (Typical Value)): -1.54 | Fentanyl-equivalence factor (Geom. Mean (Typical Value)): 28.0 | Hill coefficient (Geom. Mean (Typical Value)): 5.16 | ke0 (Geom. Mean (Typical Value)): 12.1 h⁻¹ | Scoping Factor (Geometric Mean): 0.129 | Concentration -equivalence factor (Geometric Mean, N 99): 31.65 | EC50 (Geometric Mean, N 99): 0.372 µg/mL (≈ 0.847 µM) | Gamma (Geometric Mean, N 99): 5.480 | ke0 (Geometric Mean, N 99): 11.98 h⁻¹ | Scoping Factor (Maximum): 0.587 | Concentration -equivalence factor (Maximum, N 99): 330.8 | EC50 (Maximum, N 99): 0.736 µg/mL (≈ 1.68 µM) | Gamma (Maximum, N 99): 21.31 | ke0 (Maximum, N 99): 23.30 h⁻¹ | Scoping Factor (Mean): 0.178 | Concentration -equivalence factor (Mean, N 99): 40.78 | EC50 (Mean, N 99): 0.385 µg/mL (≈ 0.876 µM) | Gamma (Mean, N 99): 6.435 | ke0 (Mean, N 99): 12.35 h⁻¹ | Scoping Factor (Median): 0.110 | Concentration -equivalence factor (Median, N 99): 27.99 | EC50 (Median, N 99): 0.380 µg/mL (≈ 0.865 µM) | Gamma (Median, N 99): 5.229 | ke0 (Median, N 99): 12.14 h⁻¹ | Scoping Factor (Minimum): 0.023 | Concentration -equivalence factor (Minimum, N 99): 5.94 | EC50 (Minimum, N 99): 0.202 µg/mL (≈ 0.46 µM) | Gamma (Minimum, N 99): 1.151 | ke0 (Minimum, N 99): 5.58 h⁻¹ | inter-subject variability in the pharmacodynamic interaction (Run FEN06S): 162% | EMAX, fitted [1]: 4.97 | EMIN, fitted [1]: -1.96 | EMAX, fitted [2]: 4.98 | EMIN, fitted [2]: -1.83 | EMAX, fitted [3]: 4.95 | EMIN, fitted [3]: -1.65 | EMAX, fitted [4]: 4.90 | EMIN, fitted [4]: -1.55 | EMAX, fitted [5]: 4.95 | EMIN, fitted [5]: -1.72 | EMAX, fitted [6]: 4.85 | EMIN, fitted [6]: -1.48 | EMAX, fitted [7]: 4.85 | EMIN, fitted [7]: -1.51 | EMAX, fitted [8]: 4.88 | EMIN, fitted [8]: -1.67 | EMAX, fitted [9]: 4.91 | EMIN, fitted [9]: -1.62 | EMAX, fitted [10]: 4.87 | EMIN, fitted [10]: -1.45 | EMAX, fitted [11]: 4.89 | EMIN, fitted [11]: -1.58 | EMAX, fitted [12]: 4.94 | EMIN, fitted [12]: -0.105 | Total Scores, Observed, MOAA/S score 0 [13]: 435 | Total Scores, Observed, MOAA/S score 1 [13]: 141 | Total Scores, Observed, MOAA/S score 2 [13]: 237 | Total Scores, Observed, MOAA/S score 3 [13]: 330 | Total Scores, Observed, MOAA/S score 4 [13]: 477 | Total Scores, Observed, MOAA/S score 5 [13]: 1144 | EC50 (Subject 1210): 0.269 µg/mL (≈ 0.612 µM) | EMAX (Subject 1210): 4.84 | EMIN (Subject 1210): -1.54 | Fentanyl-equivalence factor (Subject 1210): 126.8 | Hill coefficient (Subject 1210): 6.596 | ke0 (Subject 1210): 6.18 h⁻¹ | EC50, theta (RSE%) [14]: 0.333 (4.71) µg/ml | Fentanyl concentration-equivalence, theta (RSE%) [14]: 28.2 (30.6) | Hill coefficient (y), theta (RSE%) [14]: 4.69 (6.09) | ke0, theta (RSE%) [14]: 12.6 (4.36) h^-1 | EMAX, theta (RSE%) [15]: 5.0 (--- ) | EMIN, theta (RSE%) [15]: 0.0 (--- ) | EC50, theta (RSE%) [16]: 0.380 (0.94) µg/ml | EMAX, theta (RSE%) [16]: 4.84 (0.15) | EMIN, theta (RSE%) [16]: -1.54 (1.75) | Fentanyl concentration-equivalence, theta (RSE%) [16]: 28.0 (24.8) | Hill coefficient (y), theta (RSE%) [16]: 5.16 (2.32) | ke0, theta (RSE%) [16]: 12.1 (0.91) h^-1 | EC50, theta (RSE%) [17]: 0.339 (1.36) µg/ml | Fentanyl concentration-equivalence, theta (RSE%) [17]: 30.9 (20.4) | Hill coefficient (y), theta (RSE%) [17]: 4.74 (2.06) | ke0, theta (RSE%) [17]: 12.8 (1.01) h^-1 | EMAX, theta (RSE%) [18]: 5.0 (--- ) | EMIN, theta (RSE%) [18]: 0.0 (--- ) | EC50, theta (RSE%) [19]: 0.386 (2.58) µg/ml | EMAX, theta (RSE%) [19]: 4.84 (0.17) | EMIN, theta (RSE%) [19]: -1.49 (1.67) | Fentanyl concentration-equivalence, theta (RSE%) [19]: 30.6 (17.9) | Hill coefficient (y), theta (RSE%) [19]: 5.23 (0.54) | ke0, theta (RSE%) [19]: 12.3 (1.19) h^-1 | EC50, theta (RSE%) [20]: 0.333 (0.84) µg/ml | Fentanyl concentration-equivalence, theta (RSE%) [20]: 28.9 (22.5) | Hill coefficient (y), theta (RSE%) [20]: 4.7 (2.34) | ke0, theta (RSE%) [20]: 12.6 (1.14) h^-1 | EMAX, theta (RSE%) [21]: 5.0 (--- ) | EMIN, theta (RSE%) [21]: 0.0 (--- ) | EC50, theta (RSE%) [22]: 0.381 (4.17) µg/ml | EMAX, theta (RSE%) [22]: 4.84 (0.13) | EMIN, theta (RSE%) [22]: -1.52 (1.76) | Fentanyl concentration-equivalence, theta (RSE%) [22]: 28.9 (19.9) | Hill coefficient (y), theta (RSE%) [22]: 5.19 (0.49) | ke0, theta (RSE%) [22]: 12.1 (0.69) h^-1
